Experimental data reported in US9284284B2, “Oxazine derivatives and their use in the treatment of disease” (NOVARTIS AG, priority 2011, dated 2016).

Chains of the proteins cited; added tags and fusions are not shown. Residues count along the entry.
UniProt P56817, 46-457: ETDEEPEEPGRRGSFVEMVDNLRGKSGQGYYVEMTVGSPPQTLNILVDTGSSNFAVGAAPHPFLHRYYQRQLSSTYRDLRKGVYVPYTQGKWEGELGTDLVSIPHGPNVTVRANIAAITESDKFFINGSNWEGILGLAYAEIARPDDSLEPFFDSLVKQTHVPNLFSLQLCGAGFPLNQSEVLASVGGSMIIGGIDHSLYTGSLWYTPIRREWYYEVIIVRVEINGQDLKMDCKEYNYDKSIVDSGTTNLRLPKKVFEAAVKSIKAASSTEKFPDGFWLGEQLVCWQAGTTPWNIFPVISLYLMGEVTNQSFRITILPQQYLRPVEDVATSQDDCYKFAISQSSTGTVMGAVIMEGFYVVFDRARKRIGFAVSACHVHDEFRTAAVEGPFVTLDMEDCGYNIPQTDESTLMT
UniProt Q9Y5Z0, 63-473: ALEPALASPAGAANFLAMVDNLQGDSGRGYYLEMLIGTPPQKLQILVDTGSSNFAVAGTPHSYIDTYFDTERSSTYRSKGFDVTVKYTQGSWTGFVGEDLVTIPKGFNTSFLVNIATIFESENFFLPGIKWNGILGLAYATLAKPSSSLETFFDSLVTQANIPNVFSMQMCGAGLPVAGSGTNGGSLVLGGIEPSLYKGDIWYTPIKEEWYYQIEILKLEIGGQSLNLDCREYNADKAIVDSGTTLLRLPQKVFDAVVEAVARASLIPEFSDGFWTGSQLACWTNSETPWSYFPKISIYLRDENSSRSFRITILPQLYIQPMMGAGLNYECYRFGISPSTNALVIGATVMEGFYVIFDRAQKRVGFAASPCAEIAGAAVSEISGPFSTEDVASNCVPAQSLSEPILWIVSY

What was measured:
[1] = system: amyloid peptide 1-40 release; assay: Test 4: Inhibition of Cellular Release of Amyloid Peptide 1-40; format: cell-based, Chinese hamster; details: Cricetulus griseus, 24 h, read-out: Amyloid-β1-40 release IC50
Description: Chinese hamster ovary cells are transfected with the human gene for amyloid precursor protein. The cells are plated at a density of 8000 cells/well into 96-well microtiter plates and cultivated for 24 hours in DMEM cell culture medium containing 10% FCS. The test compound is added to the cells at various concentrations, and the cells are cultivated for 24 hours in the presence of the test compound. […] The potency of the compound is calculated from the percentage of inhibition of amyloid peptide release as a function of the test compound concentration.

human BACE-1 = human BACE-1 (Homo sapiens (Human), UniProt P56817); assay: Test 1: Inhibition of Human BACE-1; format: biochemical
Description: Test 1: Inhibition of Human BACE-1
(§1) Recombinant BACE-1 (extracellular domain, expressed in baculovirus and purified using standard methods) at 0.1 to 1 nM concentrations is incubated with the test compound at various concentrations for 1 hour at room temperature in 100 mM acetate buffer, pH 4.5, containing 0.1% CHAPS. Activity was measured using a final concentration of 3 μM of the fluorescence-quenched substrate Q-C(HSO3)-Ile-Asp-Leu-Ala-Val-Leu-Asp-HN—CH2—CH2-Mca, where Q=2-nitro-5-amino benzoic acid and Mca=7-methoxy-4-coumarinyl acetic acid. Catalytic turnover was monitored in a Spectramax Gemini fluorescence plate reader (Molecular Devices) in black 96-well microplates using excitation/emission wavelength of 325 nm and 400 nm, respectively. Fluorescence increase was followed for 15 min, in 1 minute's intervals. The fluorescence/time slopes were calculated from duplicate wells and from wells without inhibitor and the IC50 values were calculated using a logistic 4-parameter model.

human BACE-2 = human BACE-2 (Homo sapiens (Human), UniProt Q9Y5Z0); assay: Test 2: Inhibition of Human BACE-2; format: biochemical
Description: Test 2: Inhibition of Human BACE-2
as §1, with “BACE-2” for “BACE-1”

For `COc1ccccc1Nc1ccc(F)c([C@]2(C)CO[C@@](C)(C(F)(F)F)C(N)=N2)n1` [Example 29, (2R,5R)-5-[3-Fluoro-6-(2-methoxy-phenylamino)-pyridin-2-yl]-2,5-dimethyl-2-trifluoromethyl-5,6-dihydro-2H-[1,4]oxazin-3-ylamine], the IC50 [1] was 2.3 µM, the IC50 (human BACE-1) was over 10 µM and the IC50 (human BACE-2) was 4.2 µM.
